Patent publication US10045980B2, “Inhibitor of p38 map kinase” (RESPIVERT LTD, priority 2014, dated 2018)

Chains of the proteins cited; added tags and fusions are not shown. Residues count along the entry.
UniProt P08631, 22-526: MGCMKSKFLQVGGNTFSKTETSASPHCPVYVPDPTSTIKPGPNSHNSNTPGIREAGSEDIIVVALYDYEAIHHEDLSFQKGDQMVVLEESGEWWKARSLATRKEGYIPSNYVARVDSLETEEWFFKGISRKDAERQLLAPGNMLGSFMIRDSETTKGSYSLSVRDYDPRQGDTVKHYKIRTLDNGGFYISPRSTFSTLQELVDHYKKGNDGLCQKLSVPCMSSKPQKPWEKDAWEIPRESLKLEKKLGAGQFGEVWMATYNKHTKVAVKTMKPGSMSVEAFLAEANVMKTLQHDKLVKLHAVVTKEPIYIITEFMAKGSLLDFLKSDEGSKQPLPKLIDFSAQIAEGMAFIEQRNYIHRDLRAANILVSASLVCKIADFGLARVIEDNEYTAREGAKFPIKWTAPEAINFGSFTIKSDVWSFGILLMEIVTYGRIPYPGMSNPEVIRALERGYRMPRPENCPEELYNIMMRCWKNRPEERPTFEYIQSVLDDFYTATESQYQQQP

Target: T1, Hck (Homo sapiens, UniProt P08631)
T1 construct: purchased Life Technologies
Experiment: Hck enzyme inhibition (Z-LYTE FRET)
Assay type: biochemical
Procedure: The enzyme inhibitory activities of the compound disclosed herein were determined by FRET using synthetic peptides labelled with both donor and acceptor fluorophores (Z-LYTE, Life Technologies, Paisley, UK).
The inhibitory activities of the compound of the invention against Hck, c-Src and Syk enzymes (Life Technologies) were evaluated in a similar fashion to that described hereinabove. The relevant enzyme (1000 ng/mL, 1400 ng/mL or 2000 ng/mL respectively, 2.5 μL) was incubated with the test compound (either 40 μg/mL, 12 μg/mL, 4 μg/mL, 1.2 μg/mL, 0.4 μg/mL, 0.12 μg/mL, 0.04 μg/mL, 0.012 μg/mL, 0.004 μg/mL or 0.0012 μg/mL, 2.5 μL each) for 2 h at RT. The FRET peptides (8 μM, 2.5 μL), and appropriate ATP solutions (2.5 μL, 800 μM for c-Src, and 60 μM ATP for HCK and Syk) were then added to the enzyme/compound mixtures and incubated for 1 h at RT. Development reagent (protease, 5 μL) was added for 1 h prior to detection in a fluorescence microplate reader (EnVision, Perkin Elmer).
In all cases, the site-specific protease cleaves non-phosphorylated peptide only and eliminates the FRET signal. Phosphorylation levels of each reaction were calculated using the ratio of coumarin emission (donor) over fluorescein emission (acceptor), for which low ratios indicate high phosphorylation and high ratios indicate low phosphorylation levels.

Q: Which IC50 does the source give for `COCC(=O)Nc1cc(Oc2ccc(NC(=O)Nc3cc(C(C)(C)C)nn3-c3ccc(C)cc3)c3ccccc23)ccn1` [Reference Compound, N-(4-(4-(3-(3-tert-Butyl-1-p-tolyl-1H-pyrazol-5-yl)ureido)naphthalen-1-yloxy)pyridin-2-yl)-2-methoxyacetamide, reference compound] here?
A: 7 nM
